Consider one substance from patent publication US20140086890A1, “COMPOSITIONS AND METHODS FOR TREATING HYPERPROLIFERATIVE DISORDERS” (priority 2004, published 2014).

In this assay the test system is bulk NK cells. Briefly: expansion of bulk NK cells with feeder cells and IL-2. Particulars: for Expansion Fold: EBVLCL feeders, two weeks, averages of two experiments.

As for “IL-2: interleukin-2 in NK cell culture media”, the “influence of IL-2 concentration on NK cell expansion” value (5 to 500 IU/mL, EBV-LCLs as feeders) is reported as “did not influence”. The “Expansion Fold” value is 6.8 × 10^3 fold (IL-2 5 IU/ml), 2.5 × 10^4 fold (IL-2 50 IU/ml) and 2.6 × 10^4 fold (IL-2 100 IU/ml). In addition, the “NK cell net expansion after 14 days” value (IL-2 (500 IU) containing SCGM media alone, no feeders) is listed as ~10^2 fold.
